Laboratory results published in ChEMBL document CHEMBL5046242, “Investigation of Janus Kinase (JAK) Inhibitors for Lung Delivery and the Importance of Aldehyde Oxidase Metabolism” (J Med Chem, 2022).

By UniProt entry, the sequences of proteins in these tests, tags left out. Where a name states a change or a piece, a line headed by the entry shows the natural chain unless it says otherwise.
UniProt P35968, whole entry: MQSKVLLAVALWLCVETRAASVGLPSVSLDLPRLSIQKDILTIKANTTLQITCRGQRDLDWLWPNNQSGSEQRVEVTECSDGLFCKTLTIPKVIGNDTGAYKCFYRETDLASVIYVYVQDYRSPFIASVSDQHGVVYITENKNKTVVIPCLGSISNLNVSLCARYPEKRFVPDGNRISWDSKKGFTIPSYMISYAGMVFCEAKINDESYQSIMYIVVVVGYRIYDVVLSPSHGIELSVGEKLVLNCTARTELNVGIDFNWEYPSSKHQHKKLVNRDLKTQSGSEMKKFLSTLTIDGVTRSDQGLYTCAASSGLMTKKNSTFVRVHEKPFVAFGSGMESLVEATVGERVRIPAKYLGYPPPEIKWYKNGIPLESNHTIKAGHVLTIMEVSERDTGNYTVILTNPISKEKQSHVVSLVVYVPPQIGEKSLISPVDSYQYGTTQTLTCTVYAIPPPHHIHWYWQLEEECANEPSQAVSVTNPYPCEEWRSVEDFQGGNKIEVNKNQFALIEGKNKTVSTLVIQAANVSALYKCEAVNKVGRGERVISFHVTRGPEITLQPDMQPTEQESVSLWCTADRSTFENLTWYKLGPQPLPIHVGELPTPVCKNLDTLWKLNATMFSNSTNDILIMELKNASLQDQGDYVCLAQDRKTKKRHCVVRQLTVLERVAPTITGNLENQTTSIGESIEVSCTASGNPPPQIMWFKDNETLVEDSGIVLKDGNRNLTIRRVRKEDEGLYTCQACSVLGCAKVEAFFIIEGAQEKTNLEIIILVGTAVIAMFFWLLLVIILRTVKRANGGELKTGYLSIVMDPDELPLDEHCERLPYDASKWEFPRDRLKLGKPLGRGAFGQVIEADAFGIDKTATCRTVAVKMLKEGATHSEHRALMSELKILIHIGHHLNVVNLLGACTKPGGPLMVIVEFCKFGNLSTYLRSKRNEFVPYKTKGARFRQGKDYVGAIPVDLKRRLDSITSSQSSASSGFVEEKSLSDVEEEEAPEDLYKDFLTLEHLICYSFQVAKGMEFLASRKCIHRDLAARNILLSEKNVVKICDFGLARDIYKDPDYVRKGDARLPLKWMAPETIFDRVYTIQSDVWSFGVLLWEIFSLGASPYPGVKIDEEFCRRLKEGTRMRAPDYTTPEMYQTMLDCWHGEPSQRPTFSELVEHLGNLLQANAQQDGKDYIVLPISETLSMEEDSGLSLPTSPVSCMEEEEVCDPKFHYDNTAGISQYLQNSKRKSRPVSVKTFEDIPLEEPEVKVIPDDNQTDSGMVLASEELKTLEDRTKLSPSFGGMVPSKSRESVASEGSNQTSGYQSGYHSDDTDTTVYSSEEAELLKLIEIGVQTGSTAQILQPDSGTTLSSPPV
UniProt P29597: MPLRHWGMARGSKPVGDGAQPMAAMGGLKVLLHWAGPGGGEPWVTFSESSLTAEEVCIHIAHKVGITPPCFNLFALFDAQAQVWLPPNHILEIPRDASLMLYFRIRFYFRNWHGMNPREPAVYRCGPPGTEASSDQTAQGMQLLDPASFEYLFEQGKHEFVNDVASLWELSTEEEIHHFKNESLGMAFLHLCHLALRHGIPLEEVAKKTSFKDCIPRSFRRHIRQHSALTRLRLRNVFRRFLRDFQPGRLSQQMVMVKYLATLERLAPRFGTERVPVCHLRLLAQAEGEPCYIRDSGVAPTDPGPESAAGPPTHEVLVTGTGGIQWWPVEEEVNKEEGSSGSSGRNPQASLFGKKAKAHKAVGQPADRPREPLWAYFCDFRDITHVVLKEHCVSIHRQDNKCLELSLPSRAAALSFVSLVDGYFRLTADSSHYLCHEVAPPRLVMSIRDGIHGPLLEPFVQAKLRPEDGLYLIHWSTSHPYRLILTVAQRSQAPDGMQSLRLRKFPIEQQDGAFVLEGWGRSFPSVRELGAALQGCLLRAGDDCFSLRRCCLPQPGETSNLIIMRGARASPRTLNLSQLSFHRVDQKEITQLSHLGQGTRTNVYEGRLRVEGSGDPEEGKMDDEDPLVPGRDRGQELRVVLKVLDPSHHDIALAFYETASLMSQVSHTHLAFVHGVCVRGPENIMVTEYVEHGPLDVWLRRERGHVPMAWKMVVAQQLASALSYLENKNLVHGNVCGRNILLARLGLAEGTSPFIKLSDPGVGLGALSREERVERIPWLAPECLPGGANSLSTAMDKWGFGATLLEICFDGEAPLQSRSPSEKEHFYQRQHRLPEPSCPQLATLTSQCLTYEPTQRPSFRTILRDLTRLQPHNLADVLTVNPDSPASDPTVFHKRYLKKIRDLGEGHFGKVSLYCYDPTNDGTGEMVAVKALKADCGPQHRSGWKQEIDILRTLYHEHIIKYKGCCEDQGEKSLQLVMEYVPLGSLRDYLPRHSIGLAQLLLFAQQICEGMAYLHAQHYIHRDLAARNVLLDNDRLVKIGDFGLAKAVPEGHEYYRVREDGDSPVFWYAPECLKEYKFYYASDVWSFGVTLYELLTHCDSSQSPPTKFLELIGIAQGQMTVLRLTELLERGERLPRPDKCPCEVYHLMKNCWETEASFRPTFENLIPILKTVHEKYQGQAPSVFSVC

What was measured:
[1] = biological target: Vascular endothelial growth factor receptor 2 (Homo sapiens, UniProt P35968)
[2] = biological target: Non-receptor tyrosine-protein kinase TYK2 (Homo sapiens, UniProt P29597); assay type: cell-based

IC50 [1] | IC50 [2] | SMILES
2510 nM | – | CCc1cc(O)c(F)cc1-c1cc(NCCNC)c2nc(N)ncc2c1
1580 nM | – | CCc1cc(O)c(F)cc1-c1cc(NCCO)c2nc(N)ncc2c1
– | 100 nM | CC(=O)N1CCC(Nc2cccc3cnc(Nc4cnn(C)c4)nc23)CC1
